As usually defined, the Kd is the equilibrium constant for the complex coming apart. As a reminder, the IC50 is the concentration that inhibits the measured activity by half.

Amino acid sequences for entries named in this document (tags omitted). A change or cut given only in a name is not applied to a line headed by its entry.
UniProt P42338, whole entry: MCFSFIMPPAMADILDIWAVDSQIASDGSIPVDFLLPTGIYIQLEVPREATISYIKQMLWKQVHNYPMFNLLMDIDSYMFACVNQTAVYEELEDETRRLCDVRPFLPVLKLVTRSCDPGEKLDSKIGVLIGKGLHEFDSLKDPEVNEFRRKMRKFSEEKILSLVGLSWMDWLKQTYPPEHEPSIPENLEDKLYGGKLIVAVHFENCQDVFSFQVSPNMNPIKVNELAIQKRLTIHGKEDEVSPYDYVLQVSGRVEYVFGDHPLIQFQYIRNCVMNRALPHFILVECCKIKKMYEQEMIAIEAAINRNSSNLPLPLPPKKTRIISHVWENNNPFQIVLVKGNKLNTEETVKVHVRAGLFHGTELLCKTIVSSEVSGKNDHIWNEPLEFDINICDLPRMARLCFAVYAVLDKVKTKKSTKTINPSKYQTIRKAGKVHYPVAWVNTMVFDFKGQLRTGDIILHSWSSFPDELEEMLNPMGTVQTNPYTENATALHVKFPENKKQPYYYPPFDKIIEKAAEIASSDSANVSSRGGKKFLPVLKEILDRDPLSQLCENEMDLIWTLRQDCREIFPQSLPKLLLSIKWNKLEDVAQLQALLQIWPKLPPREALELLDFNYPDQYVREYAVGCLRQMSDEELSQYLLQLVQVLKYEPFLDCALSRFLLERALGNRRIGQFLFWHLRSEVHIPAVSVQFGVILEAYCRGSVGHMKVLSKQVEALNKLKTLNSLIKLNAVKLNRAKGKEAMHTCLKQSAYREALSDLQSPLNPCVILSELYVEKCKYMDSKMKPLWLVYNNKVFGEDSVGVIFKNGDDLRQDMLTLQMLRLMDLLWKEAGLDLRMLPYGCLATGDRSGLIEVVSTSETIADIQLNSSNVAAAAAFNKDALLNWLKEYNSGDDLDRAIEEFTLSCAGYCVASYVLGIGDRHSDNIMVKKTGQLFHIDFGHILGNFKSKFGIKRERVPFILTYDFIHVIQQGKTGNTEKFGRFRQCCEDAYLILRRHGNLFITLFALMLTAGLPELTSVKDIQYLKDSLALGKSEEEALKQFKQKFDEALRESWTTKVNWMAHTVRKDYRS
UniProt O00329, whole entry: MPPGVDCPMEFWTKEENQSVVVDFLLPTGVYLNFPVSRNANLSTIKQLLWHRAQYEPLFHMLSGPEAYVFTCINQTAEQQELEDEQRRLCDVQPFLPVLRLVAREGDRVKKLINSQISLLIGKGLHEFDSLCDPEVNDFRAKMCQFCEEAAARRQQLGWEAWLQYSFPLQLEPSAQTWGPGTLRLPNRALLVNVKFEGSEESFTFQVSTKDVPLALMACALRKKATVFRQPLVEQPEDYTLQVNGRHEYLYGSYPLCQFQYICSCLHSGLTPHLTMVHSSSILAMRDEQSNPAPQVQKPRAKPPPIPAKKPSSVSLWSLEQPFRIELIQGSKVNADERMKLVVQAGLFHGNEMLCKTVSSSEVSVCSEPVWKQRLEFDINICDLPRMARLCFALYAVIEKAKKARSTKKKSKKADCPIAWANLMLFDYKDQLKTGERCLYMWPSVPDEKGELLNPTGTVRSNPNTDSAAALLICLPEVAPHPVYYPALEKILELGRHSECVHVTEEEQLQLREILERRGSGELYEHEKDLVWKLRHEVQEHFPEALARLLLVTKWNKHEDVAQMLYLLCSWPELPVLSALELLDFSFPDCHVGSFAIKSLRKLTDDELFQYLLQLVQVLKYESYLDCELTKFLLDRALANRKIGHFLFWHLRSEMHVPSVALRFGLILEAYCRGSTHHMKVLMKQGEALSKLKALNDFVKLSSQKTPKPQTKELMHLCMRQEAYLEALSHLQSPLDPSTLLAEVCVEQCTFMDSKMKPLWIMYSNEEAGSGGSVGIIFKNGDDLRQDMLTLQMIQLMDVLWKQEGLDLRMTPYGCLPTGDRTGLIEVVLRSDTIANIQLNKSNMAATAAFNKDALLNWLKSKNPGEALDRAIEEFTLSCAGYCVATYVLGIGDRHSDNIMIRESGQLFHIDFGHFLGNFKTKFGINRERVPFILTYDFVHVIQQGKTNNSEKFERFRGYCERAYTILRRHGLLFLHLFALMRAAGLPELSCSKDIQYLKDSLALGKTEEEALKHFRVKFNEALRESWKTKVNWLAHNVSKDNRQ
UniProt P42336, whole entry: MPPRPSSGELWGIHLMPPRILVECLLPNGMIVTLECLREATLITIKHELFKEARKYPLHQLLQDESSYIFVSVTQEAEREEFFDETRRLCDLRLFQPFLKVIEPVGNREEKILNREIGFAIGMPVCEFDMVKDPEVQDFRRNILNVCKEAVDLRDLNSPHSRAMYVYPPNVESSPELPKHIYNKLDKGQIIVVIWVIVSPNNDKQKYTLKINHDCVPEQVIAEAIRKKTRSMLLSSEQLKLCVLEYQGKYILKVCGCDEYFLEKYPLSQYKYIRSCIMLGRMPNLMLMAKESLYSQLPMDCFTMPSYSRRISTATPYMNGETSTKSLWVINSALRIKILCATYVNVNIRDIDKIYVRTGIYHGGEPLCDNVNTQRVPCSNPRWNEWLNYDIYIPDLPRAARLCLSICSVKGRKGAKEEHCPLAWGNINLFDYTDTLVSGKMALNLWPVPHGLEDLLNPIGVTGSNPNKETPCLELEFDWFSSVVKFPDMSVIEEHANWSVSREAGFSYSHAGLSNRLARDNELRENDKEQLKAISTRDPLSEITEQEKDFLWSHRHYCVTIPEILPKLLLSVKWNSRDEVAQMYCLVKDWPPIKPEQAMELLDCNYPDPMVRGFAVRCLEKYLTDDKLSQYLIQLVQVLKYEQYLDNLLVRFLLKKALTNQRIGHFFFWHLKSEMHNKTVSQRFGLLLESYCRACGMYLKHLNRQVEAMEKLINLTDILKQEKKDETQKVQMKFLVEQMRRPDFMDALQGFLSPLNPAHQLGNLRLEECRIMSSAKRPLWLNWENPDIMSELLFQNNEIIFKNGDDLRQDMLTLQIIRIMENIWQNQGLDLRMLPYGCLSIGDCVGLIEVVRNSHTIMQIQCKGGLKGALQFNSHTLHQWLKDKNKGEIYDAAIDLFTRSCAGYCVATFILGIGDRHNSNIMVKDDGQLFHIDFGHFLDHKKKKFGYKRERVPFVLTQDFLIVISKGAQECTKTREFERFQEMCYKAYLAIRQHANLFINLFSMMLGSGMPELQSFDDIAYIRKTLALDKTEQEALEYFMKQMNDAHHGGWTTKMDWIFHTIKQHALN
UniProt P48736, whole entry: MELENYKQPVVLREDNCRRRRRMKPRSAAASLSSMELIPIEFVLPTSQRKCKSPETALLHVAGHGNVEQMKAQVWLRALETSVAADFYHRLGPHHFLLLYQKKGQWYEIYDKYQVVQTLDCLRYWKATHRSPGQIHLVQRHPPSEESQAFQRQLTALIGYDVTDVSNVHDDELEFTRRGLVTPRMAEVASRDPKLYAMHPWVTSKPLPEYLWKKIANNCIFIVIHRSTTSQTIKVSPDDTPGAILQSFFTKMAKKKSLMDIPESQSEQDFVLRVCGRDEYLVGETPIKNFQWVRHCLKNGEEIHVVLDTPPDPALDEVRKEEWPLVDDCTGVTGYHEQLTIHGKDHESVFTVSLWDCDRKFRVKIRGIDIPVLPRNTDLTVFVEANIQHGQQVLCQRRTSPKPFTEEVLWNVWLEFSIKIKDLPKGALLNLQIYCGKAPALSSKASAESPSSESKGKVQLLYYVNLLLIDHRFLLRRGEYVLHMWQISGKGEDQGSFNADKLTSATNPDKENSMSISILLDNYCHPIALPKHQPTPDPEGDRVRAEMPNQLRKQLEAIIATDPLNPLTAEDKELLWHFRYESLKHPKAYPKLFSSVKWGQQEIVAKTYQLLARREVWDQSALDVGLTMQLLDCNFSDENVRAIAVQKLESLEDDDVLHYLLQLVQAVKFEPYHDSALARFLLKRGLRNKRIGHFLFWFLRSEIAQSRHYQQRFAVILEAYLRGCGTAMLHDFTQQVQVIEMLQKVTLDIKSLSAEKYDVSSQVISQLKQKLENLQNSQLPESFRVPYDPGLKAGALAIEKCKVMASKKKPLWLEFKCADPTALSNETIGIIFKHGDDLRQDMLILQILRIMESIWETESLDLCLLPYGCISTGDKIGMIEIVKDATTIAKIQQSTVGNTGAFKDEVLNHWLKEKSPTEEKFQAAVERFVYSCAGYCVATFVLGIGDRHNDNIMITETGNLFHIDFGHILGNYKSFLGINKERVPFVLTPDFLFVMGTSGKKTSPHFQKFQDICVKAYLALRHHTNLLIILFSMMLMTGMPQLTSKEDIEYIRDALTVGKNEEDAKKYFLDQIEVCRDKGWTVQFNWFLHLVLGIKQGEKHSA

The values below come from patent US10526316B2, “Quinoxaline and pyridopyrazine derivatives as PI3Kβ inhibitors” (Janssen Pharmaceutica NV, priority 2015, dated 2020).

One experiment has as its target PI3Kβ (Homo sapiens, UniProt P42338). Kind of experiment: Enzyme binding assay (KINOMEscan, DiscoveRx). As to conditions: read-out: Kd PIK3Cβ_h. The method, then:
(§1) Enzyme Binding Assays (KINOMEscan®)
(§2) Kinase enzyme binding affinities of compounds disclosed herein were determined using the KINOMEscan technology performed by DiscoveRx Corporation, San Diego, Calif., USA (www.kinomescan.com). Table A reports the obtained Kd values (nM), with the Kd being the inhibitor binding constant: […]

The target of another experiment is PI3Kδ (Homo sapiens, UniProt O00329). Kind of experiment: Enzyme binding assay (KINOMEscan, DiscoveRx). The following applies: read-out: Kd PIK3Cδ_h.
Experiment [1] addresses kinase enzymes (Homo sapiens, UniProt P42336). Kind of experiment: Enzyme binding assay (KINOMEscan, DiscoveRx), further kinases of Table A. The following applies: read-out: Kd PIK3Cα_h, PIK3Cα_h. As to the method:
as §1, §2

The target of experiment [2] is kinase enzymes (Homo sapiens, UniProt P42345). The description is as above. As to conditions: read-out: Kd MTOR_h, MTOR_h. As to the method:
as §1, §2

Experiment [3] concerns the target kinase enzymes (Homo sapiens, UniProt P48736). The description is as above. As to conditions: read-out: Kd PIK3Cγ_h, PIK3Cγ_h. As to the method: as §1, §2
The subject of experiment [4] is Akt phosphorylated at Ser473 in PC-3 cells. Put plainly: Cellular assay: phosphorylation of Akt at Ser473 in PC-3 cells (MSD ELISA). As to conditions: read-out: IC50 pAkt_S473, 60 min compound incubation. In kind it is cell-based.
The test system of experiment [5] is Akt phosphorylated at Thr308 in PC-3 cells. Kind of experiment: Cellular assay: phosphorylation of Akt at Thr308 in PC-3 cells (MSD ELISA). It counts as cell-based. As to conditions: read-out: IC50 pAkt_Thr308, 60 min compound incubation.

For `CC(Nc1cc(C(=O)NCCO)cc2ncc(N3CCOCC3)nc12)c1cc(F)cc(F)c1` (stereo not drawn), the Kd at PI3Kβ is 98 nM; on PI3Kδ, 2820 nM; at kinase enzymes [1] it was 16200 nM; on kinase enzymes [2] it was 13200 nM; at kinase enzymes [3] it was > 30200 nM. Moreover, the IC50 in experiment [4] and in experiment [5] was > 513 nM in each case.

On to `CNCCN(C)Cc1cc(C2CCCN2c2cc(F)cc(F)c2)c2nc(N3CCOCC3)cnc2c1` (stereo not drawn), for which the Kd is 0.3 nM on PI3Kβ; 33 nM at PI3Kδ; 219 nM at kinase enzymes [1]; 21900 nM at kinase enzymes [2]; 191 nM on kinase enzymes [3]. Moreover, the IC50 in experiment [4] was 41 nM; in experiment [5], 28 nM.

Turning to `Cc1c(F)cccc1CNc1cc(C(=O)NCCO)cc2ncc(N3CCOCC3)nc12` [Compound 336], at PI3Kβ, the Kd worked out at 4 nM.

With `CC(Oc1ccc(F)c(F)c1)c1cc(C(=O)N2CC[C@@H](N(C)C)C2)cc2ncc(N3CCOCC3)nc12` (single isomer, unassigned) [Compound 298b], the Kd on PI3Kβ turned out to be 4 nM; at PI3Kδ, 724 nM; on kinase enzymes [1], 4790 nM; at kinase enzymes [3], 24500 nM. The IC50 came out at 135 nM in experiment [4] and 47 nM in experiment [5].
